Assay results published in ChEMBL document CHEMBL4665792, “Design and SAR of Withangulatin A Analogues that Act as Covalent TrxR Inhibitors through the Michael Addition Reaction Showing Potential in Cancer Treatment” (J Med Chem, 2020).

Species: Homo sapiens
Test: Covalent inhibition of TrxR (unknown origin) assessed as ratio of Kinact to ki incubated up to 30 mins in presence of NADPH by Ellman's method
Conditions: time min <=30

Structure (SMILES): CC(=O)O[C@H]1C=C([C@H](C)[C@H]2CC(C)=C(C)C(=O)O2)[C@@]2(C)CC[C@H]3[C@@H](C[C@H]4O[C@]45[C@@H](OC(=O)/C=C/C(=O)N(C)C)C=CC(=O)[C@]35C)[C@]12O
- Ratio: 0.0254 µM⁻¹ min⁻¹

Structure (SMILES): CC(=O)O[C@H]1C=C([C@H](C)[C@H]2CC(C)=C(C)C(=O)O2)[C@@]2(C)CC[C@H]3[C@@H](C[C@H]4O[C@]45[C@@H](O)C=CC(=O)[C@]35C)[C@]12O
- Ratio: 0.004 µM⁻¹ min⁻¹
